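Cultured in 96-well plates, cells were exposed to test compound for 48 hours across five concentrations. Abbreviation: GI50, concentration required for 50% inhibition of growth. The concentration for full growth arrest is given as TGI.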
Assays:
Test in all cases: growth of human tumour cells (NCI), 48 h
[1] = tested on: 786-0 renal
[2] = tested on: A498 renal
[3] = tested on: A549 NSCLC
[4] = tested on: ACHN renal
[5] = tested on: BT-549 breast
[6] = tested on: CAKI-1 renal
[7] = tested on: CCRF-CEM leukemia
[8] = tested on: COLO 205 colon
[9] = tested on: DU-145 prostate
[10] = tested on: EKVX NSCLC
[11] = tested on: HCT-116 colon
[12] = tested on: HCT-15 colon
[13] = tested on: HL-60(TB) leukemia
[14] = tested on: HOP-62 NSCLC
[15] = tested on: HOP-92 NSCLC
[16] = tested on: HS 578T breast
[17] = tested on: HT29 colon
[18] = tested on: IGROV1 ovarian
[19] = tested on: K-562 leukemia
[20] = tested on: KM12 colon
[21] = tested on: LOX IMVI melanoma
[22] = tested on: M14 melanoma
[23] = tested on: MALME-3M melanoma
[24] = tested on: MCF7 breast
[25] = tested on: MDA-MB-231 breast
[26] = tested on: MDA-MB-435
[27] = tested on: MDA-N
[28] = tested on: MOLT-4 leukemia
[29] = tested on: NCI-H23 lung
[30] = tested on: NCI-H322M lung
[31] = tested on: NCI-H460 lung
[32] = tested on: NCI-H522 lung
[33] = tested on: NCI/ADR-RES ovarian
[34] = tested on: OVCAR-3 ovarian
[35] = tested on: OVCAR-4 ovarian
[36] = tested on: OVCAR-5 ovarian
[37] = tested on: OVCAR-8 ovarian
[38] = tested on: PC-3 prostate
[39] = tested on: RPMI-8226 leukemia
[40] = tested on: RXF 393 renal
[41] = tested on: SF-268 CNS
[42] = tested on: SF-295 CNS
[43] = tested on: SF-539 CNS
[44] = tested on: SK-MEL-2 melanoma
[45] = tested on: SK-MEL-28 melanoma
[46] = tested on: SK-MEL-5 melanoma
[47] = tested on: SK-OV-3 ovarian
[48] = tested on: SN12C renal
[49] = tested on: SNB-19 CNS
[50] = tested on: SNB-75 CNS
[51] = tested on: SR leukemia
[52] = tested on: SW-620 colon
[53] = tested on: T-47D breast
[54] = tested on: TK-10 renal
[55] = tested on: U251 CNS
[56] = tested on: UACC-257 melanoma
[57] = tested on: UACC-62 melanoma
[58] = tested on: UO-31 renal

Cn1cnc([N+](=O)[O-])c1C[N+](C)(CCCl)CCCl
GI50 [1]: > 100 µM
TGI [1]: > 100 µM
GI50 [2]: > 100 µM
TGI [2]: > 100 µM
GI50 [3]: > 100 µM
TGI [3]: > 100 µM
GI50 [4]: 58.1 µM
TGI [4]: > 100 µM
GI50 [5]: > 100 µM
TGI [5]: > 100 µM
GI50 [6]: 34.9 µM
TGI [6]: > 100 µM
GI50 [7]: > 100 µM
TGI [7]: > 100 µM
GI50 [8]: > 100 µM
TGI [8]: > 100 µM
GI50 [9]: > 100 µM
TGI [9]: > 100 µM
GI50 [10]: > 100 µM
TGI [10]: > 100 µM
GI50 [11]: > 100 µM
TGI [11]: > 100 µM
GI50 [12]: > 100 µM
TGI [12]: > 100 µM
GI50 [13]: > 100 µM
TGI [13]: > 100 µM
GI50 [14]: > 100 µM
TGI [14]: > 100 µM
GI50 [15]: > 100 µM
TGI [15]: > 100 µM
GI50 [16]: > 100 µM
TGI [16]: > 100 µM
GI50 [17]: > 100 µM
TGI [17]: > 100 µM
GI50 [18]: > 100 µM
TGI [18]: > 100 µM
GI50 [19]: > 100 µM
TGI [19]: > 100 µM
GI50 [20]: > 100 µM
TGI [20]: > 100 µM
GI50 [21]: > 100 µM
TGI [21]: > 100 µM
GI50 [22]: > 100 µM
TGI [22]: > 100 µM
GI50 [23]: > 100 µM
TGI [23]: > 100 µM
GI50 [24]: > 100 µM
TGI [24]: > 100 µM
GI50 [25]: > 100 µM
TGI [25]: > 100 µM
GI50 [26]: > 100 µM
TGI [26]: > 100 µM
GI50 [27]: > 100 µM
TGI [27]: > 100 µM
GI50 [28]: > 100 µM
TGI [28]: > 100 µM
GI50 [29]: > 100 µM
TGI [29]: > 100 µM
GI50 [30]: > 100 µM
TGI [30]: > 100 µM
GI50 [31]: > 100 µM
TGI [31]: > 100 µM
GI50 [32]: > 100 µM
TGI [32]: > 100 µM
GI50 [33]: > 100 µM
TGI [33]: > 100 µM
GI50 [34]: > 100 µM
TGI [34]: > 100 µM
GI50 [35]: > 100 µM
TGI [35]: > 100 µM
GI50 [36]: > 100 µM
TGI [36]: > 100 µM
GI50 [37]: > 100 µM
TGI [37]: > 100 µM
GI50 [38]: > 100 µM
TGI [38]: > 100 µM
GI50 [39]: > 100 µM
TGI [39]: > 100 µM
GI50 [40]: > 100 µM
TGI [40]: > 100 µM
GI50 [41]: > 100 µM
TGI [41]: > 100 µM
GI50 [42]: > 100 µM
TGI [42]: > 100 µM
GI50 [43]: > 100 µM
TGI [43]: > 100 µM
GI50 [44]: > 100 µM
TGI [44]: > 100 µM
GI50 [45]: > 100 µM
TGI [45]: > 100 µM
GI50 [46]: > 100 µM
TGI [46]: > 100 µM
GI50 [47]: > 100 µM
TGI [47]: > 100 µM
GI50 [48]: > 100 µM
TGI [48]: > 100 µM
GI50 [49]: > 100 µM
TGI [49]: > 100 µM
GI50 [50]: 87.8 µM
TGI [50]: > 100 µM
GI50 [51]: 22.6 µM
TGI [51]: > 100 µM
GI50 [52]: > 100 µM
TGI [52]: > 100 µM
GI50 [53]: 47.1 µM
TGI [53]: > 100 µM
GI50 [54]: > 100 µM
TGI [54]: > 100 µM
GI50 [55]: > 100 µM
TGI [55]: > 100 µM
GI50 [56]: > 100 µM
TGI [56]: > 100 µM
GI50 [57]: > 100 µM
TGI [57]: > 100 µM
GI50 [58]: > 100 µM
TGI [58]: > 100 µM
